# CycPeptMPDB entries from one study

Data: CycPeptMPDB; original report Naylor et al. 2018, doi:10.1021/acs.jmedchem.8b01259.

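The data file gives no further conditions (lipid, pH, time, direction or concentration), and values from different papers need not be comparable. The list need not hold all peptides of the study. Peptides that the database sets to -10, its floor, are left out.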

PAMPA measures passive passage through an artificial lipid membrane. RRCK values come from monolayers of low-efflux MDCK cells. P is given in units of 10^-6 cm/s (from log10 values with two decimals); larger means faster passage. "n/a" marks a cell with nothing listed here.

SMILES	PAMPA (10^-6 cm/s)	RRCK (10^-6 cm/s)
CC(C)C[C@@H]1NC(=O)[C@H](C)N(C)C(=O)[C@H]2CCCN2C(=O)[C@H](CC(C)C)NC(=O)[C@H](C)N(C)C(=O)[C@@H](CC(C)C)N(C)C1=O	8.9	18
CC(C)C[C@@H]1NC(=O)[C@H](CC(C)C)N(C)C(=O)[C@H]2CCCN2C(=O)[C@H](CC(C)C)NC(=O)[C@H](Cc2ccccc2)N(C)C(=O)[C@H]2CCCN2C1=O	10	27
CC(C)C[C@@H]1NC(=O)[C@H](Cc2ccccc2)NC(=O)[C@H]2CCCN2C(=O)[C@H](CC(C)C)NC(=O)[C@H](CC2CCCCC2)NC(=O)[C@@H](CC(C)C)NC1=O	8.7	9.5
CC[C@@H]1C(=O)N(C)[C@@H](C)C(=O)N[C@@H](CC(C)C)C(=O)N2CCC[C@@H]2C(=O)N(C)[C@@H](C)C(=O)N[C@@H](CC(C)C)C(=O)N1C	2.4	3.1
CC(C)C[C@@H]1NC(=O)[C@H](C)NC(=O)[C@H](Cc2ccc(O)cc2)N(C)C(=O)[C@H](Cc2ccccc2)NC(=O)CN(C)C(=O)[C@@H]2CCCN2C(=O)[C@@H](Cc2ccccc2)N(C)C1=O	0.18	0.59
CC(C)C[C@@H]1NC(=O)[C@H](Cc2ccccc2)N(C)C(=O)[C@H]2CCCN2C(=O)[C@H](CC(C)C)NC(=O)[C@H](CC(C)C)N(C)C(=O)[C@@H](CC(C)C)N(C)C1=O	0.69	19
CC(C)C[C@@H]1NC(=O)[C@H](Cc2ccc(O)cc2)N(C)C(=O)[C@H]2CCCN2C(=O)[C@H](CC2CCCCC2)NC(=O)[C@H](CC2CCCCC2)N(C)C(=O)[C@@H](CC(C)C)N(C)C1=O	0.074	0.32
CCC[C@H]1NC(=O)[C@H](CC(C)C)NC(=O)[C@H](Cc2ccc(O)cc2)NC(=O)[C@H]2CCCN2C(=O)[C@H](CC2CCCCC2)NC(=O)[C@H](CC2CCCCC2)NC1=O	6.6	1.4
CC[C@@H]1C(=O)N(C)[C@@H](CC2CCCCC2)C(=O)N[C@@H](CC2CCCCC2)C(=O)N2CCC[C@@H]2C(=O)N(C)[C@@H](Cc2ccccc2)C(=O)N[C@@H](CC(C)C)C(=O)N1C	0.014	0.95
CC(C)C[C@@H]1NC(=O)[C@H](Cc2ccc(O)cc2)NC(=O)[C@H]2CCCN2C(=O)[C@H](CC(C)C)NC(=O)[C@H](CC(C)C)NC(=O)[C@@H](C)NC1=O	0.31	0.81
CC[C@H]1C(=O)N[C@@H](CC(C)C)C(=O)N2CCC[C@@H]2C(=O)N(C)[C@@H](Cc2ccccc2)C(=O)N[C@@H](CC(C)C)C(=O)N(C)[C@H](C)C(=O)N1C	n/a	24
CC(C)C[C@@H]1NC(=O)[C@H](Cc2ccc(O)cc2)NC(=O)[C@H]2CCCN2C(=O)[C@H](CC2CCCCC2)NC(=O)[C@H](CC2CCCCC2)NC(=O)[C@@H](CC(C)C)NC1=O	4.4	1.1
CC(C)C[C@@H]1NC(=O)[C@H](Cc2ccccc2)NC(=O)[C@H]2CCCN2C(=O)[C@H](CC(C)C)NC(=O)[C@H](C)NC(=O)[C@@H](C)NC1=O	0.72	2.6
CC(C)C[C@@H]1NC(=O)[C@H](Cc2ccc(O)cc2)N(C)C(=O)[C@H]2CCCN2C(=O)[C@H](CC(C)C)NC(=O)[C@H](CC2CCCCC2)N(C)C(=O)[C@@H](CC(C)C)N(C)C1=O	0.66	2.3
CC(C)C[C@@H]1NC(=O)[C@H](Cc2ccccc2)N(C)C(=O)[C@H]2CCCN2C(=O)[C@H](C)NC(=O)[C@H](CC(C)C)N(C)C(=O)[C@@H](CC(C)C)N(C)C1=O	10	26
CCC[C@@H]1C(=O)N(C)[C@@H](C)C(=O)N[C@@H](CC(C)C)C(=O)N2CCC[C@@H]2C(=O)N(C)[C@@H](C)C(=O)N[C@@H](CC(C)C)C(=O)N1C	6.2	14
CC[C@H]1NC(=O)[C@H](CC(C)C)NC(=O)[C@H](Cc2ccccc2)NC(=O)[C@H]2CCCN2C(=O)[C@H](CC(C)C)NC(=O)[C@H](C)NC1=O	0.72	3

Extract of 2 entries:

SMILES	PAMPA (10^-6 cm/s)	RRCK (10^-6 cm/s)
CC(C)C[C@@H]1NC(=O)[C@H](C)NC(=O)[C@H](Cc2ccc(O)cc2)N(C)C(=O)[C@H](Cc2ccccc2)NC(=O)CN(C)C(=O)[C@@H]2CCCN2C(=O)[C@@H](Cc2ccccc2)N(C)C1=O	0.18	0.59
CC(C)C[C@@H]1NC(=O)[C@H](CC(C)C)N(C)C(=O)[C@H]2CCCN2C(=O)[C@H](CC(C)C)NC(=O)[C@H](Cc2ccccc2)N(C)C(=O)[C@H]2CCCN2C1=O	10	27